Assay results published in US20240060949A1, “BIOSYSTEMS TO DETECT CHEMICAL CONTAMINANTS” (priority 2020, published 2024).

The chains behind the UniProt entries cited, without tags or fusion partners. Where a name states a change or a piece, a line headed by the entry shows the natural chain unless it says otherwise.
UniProt P12791: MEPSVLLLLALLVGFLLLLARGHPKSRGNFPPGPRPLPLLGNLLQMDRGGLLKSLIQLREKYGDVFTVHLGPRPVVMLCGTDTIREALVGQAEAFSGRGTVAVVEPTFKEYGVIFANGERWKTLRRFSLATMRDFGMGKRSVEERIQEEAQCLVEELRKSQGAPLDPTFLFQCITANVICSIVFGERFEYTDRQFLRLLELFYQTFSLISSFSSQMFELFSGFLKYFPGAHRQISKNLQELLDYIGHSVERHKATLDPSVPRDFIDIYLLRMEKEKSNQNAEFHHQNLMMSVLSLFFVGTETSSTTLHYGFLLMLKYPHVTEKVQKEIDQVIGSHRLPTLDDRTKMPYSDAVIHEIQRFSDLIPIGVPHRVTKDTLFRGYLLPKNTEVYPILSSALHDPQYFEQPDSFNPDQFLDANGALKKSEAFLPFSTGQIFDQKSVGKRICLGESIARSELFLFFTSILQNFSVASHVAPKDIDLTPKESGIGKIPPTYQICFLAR
UniProt P08684, whole entry: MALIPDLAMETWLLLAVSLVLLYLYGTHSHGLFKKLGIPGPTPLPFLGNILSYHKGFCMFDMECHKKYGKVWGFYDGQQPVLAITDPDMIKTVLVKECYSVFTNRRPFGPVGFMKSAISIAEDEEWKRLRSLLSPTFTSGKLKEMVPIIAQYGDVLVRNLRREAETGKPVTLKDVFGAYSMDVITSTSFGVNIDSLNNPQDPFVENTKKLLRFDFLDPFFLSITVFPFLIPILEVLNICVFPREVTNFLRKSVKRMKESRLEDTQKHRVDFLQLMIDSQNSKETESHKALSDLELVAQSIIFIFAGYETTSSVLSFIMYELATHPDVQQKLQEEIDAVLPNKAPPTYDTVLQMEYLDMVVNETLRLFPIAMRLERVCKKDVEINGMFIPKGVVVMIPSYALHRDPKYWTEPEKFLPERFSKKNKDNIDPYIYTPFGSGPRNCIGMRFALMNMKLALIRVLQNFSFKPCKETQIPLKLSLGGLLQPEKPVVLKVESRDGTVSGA

Legend:
[1] = biological target: CYP2B10 (Mus musculus, UniProt P12791)
[2] = biological target: CYP3A4 (Homo sapiens, UniProt P08684)

## Mercury
[1]
  Limits of detection CYP2B10: 31.7 ng/mL
[2]
  Limits of detection CYP3A4: 61.9 ng/mL
